Measured affinities in a library of Ab-14 light chain variants

Data: MIT Lincoln Laboratory AlphaSeq set, Engelhart et al. 2022, doi:10.1038/s41597-022-01779-4, as distributed in FLAb.

Target peptide (SARS-CoV-2 spike, HR2 region): PDVDLGDISGINAS

Ab-14 is the parent antibody, in scFv form: VH, then the linker GGGGSGGGGSGGGGS, then VL. The heavy chain is unchanged in all variants.
VH: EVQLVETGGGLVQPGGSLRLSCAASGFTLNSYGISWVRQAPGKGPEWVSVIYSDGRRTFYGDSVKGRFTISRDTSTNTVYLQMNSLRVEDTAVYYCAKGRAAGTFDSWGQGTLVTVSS
VL: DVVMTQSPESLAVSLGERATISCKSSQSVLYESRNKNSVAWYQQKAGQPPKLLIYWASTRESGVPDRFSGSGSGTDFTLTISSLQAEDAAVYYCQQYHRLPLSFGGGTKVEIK

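Library AAYL50 holds single substitutions and randomly drawn double and triple substitutions in the CDRs. Affinity was read by AlphaSeq, a pooled yeast mating assay with surface-displayed partners. The frequency of each diploid, read from paired DNA barcodes, reflects how well the two displayed proteins bind. A regression on co-assayed BCL2-family reference pairs converts the normalised counts of each replicate to an apparent Kd. There are three technical replicates.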

The parent's light chain CDRs are KSSQSVLYESRNKNSVA, WASTRES, QQYHRLPLS; each variant's own CDRs replace them letter for letter.
Scale: log10 of Kd in nM, estimated from mating counts; low values are strong binders.
The mean shown is taken over the replicates in which the pair was detected.
Where no diploid with the target was found in that replicate, the entry reads "nd": below detection, most likely a poor binder, though not proof of it.
Background: pairings of library AAYL50 with three empty control strains gave a value in 18% of cases (median 4.19, 5th percentile 2.99). Values in that range, when seen in few replicates, are hard to tell from nonspecific mating. For each scFv, signals with the empty controls are counted beside the result, with their mean in brackets.

{"CDR-L1": "KSSQFVLYKSRNKNSVA", "CDR-L2": "WASTRET", "CDR-L3": "QQYHRLPLS", "log10 Kd, replicates": "3.22 / 2.87 / 4.82", "mean log10 Kd (nM)": "3.64", "empty controls": "3/9 (3.95)"}
{"CDR-L1": "KSSQSVLYESINKGSVA", "CDR-L2": "WASTRES", "CDR-L3": "QQYHRLWLS", "log10 Kd, replicates": "nd / 3.84 / nd", "mean log10 Kd (nM)": "3.84", "empty controls": "0/9"}
{"CDR-L1": "KSSQSVLYESRKKNSVA", "CDR-L2": "WASTRMS", "CDR-L3": "QQYHRLPLS", "log10 Kd, replicates": "1.32 / 1.15 / 1.93", "mean log10 Kd (nM)": "1.47", "empty controls": "0/9"}
{"CDR-L1": "KSSQSYLYESRNSNSVA", "CDR-L2": "WASTREA", "CDR-L3": "QQYHRLPLS", "log10 Kd, replicates": "0.42 / 0.52 / 0.62", "mean log10 Kd (nM)": "0.52", "empty controls": "1/9 (4.55)"}
{"CDR-L1": "KSSQSVLYESRWRNSVA", "CDR-L2": "WASTRES", "CDR-L3": "QQYHRLCLS", "log10 Kd, replicates": "1.58 / 1.90 / 1.68", "mean log10 Kd (nM)": "1.72", "empty controls": "2/9 (3.98)"}
{"CDR-L1": "KSSCSVLYESRNKNSVW", "CDR-L2": "WASTREY", "CDR-L3": "QQYHRLPLS", "log10 Kd, replicates": "nd / nd / nd", "mean log10 Kd (nM)": "nd", "empty controls": "0/9"}
{"CDR-L1": "KSSKSVLYESRNTFSVA", "CDR-L2": "WASTRES", "CDR-L3": "QQYHRLPLS", "log10 Kd, replicates": "1.45 / 2.12 / 2.79", "mean log10 Kd (nM)": "2.12", "empty controls": "0/9"}
{"CDR-L1": "KSSQSVLYESMNKLSVA", "CDR-L2": "WASTRES", "CDR-L3": "QQMHRLPLS", "log10 Kd, replicates": "nd / nd / nd", "mean log10 Kd (nM)": "nd", "empty controls": "0/9"}
{"CDR-L1": "KHSQSVLYESRNKNSVA", "CDR-L2": "WASTRES", "CDR-L3": "QQCHRLPLV", "log10 Kd, replicates": "nd / nd / nd", "mean log10 Kd (nM)": "nd", "empty controls": "0/9"}
{"CDR-L1": "KSSQSVLYESRNKNSVA", "CDR-L2": "WESTAES", "CDR-L3": "GQYHRLPLS", "log10 Kd, replicates": "nd / nd / nd", "mean log10 Kd (nM)": "nd", "empty controls": "0/9"}
{"CDR-L1": "KSSQPVLVESRNCNSVA", "CDR-L2": "WASTRES", "CDR-L3": "QQYHRLPLS", "log10 Kd, replicates": "1.09 / 1.17 / 1.06", "mean log10 Kd (nM)": "1.11", "empty controls": "2/9 (4.31)"}
{"CDR-L1": "KSSQSVLYTSMNKNSVA", "CDR-L2": "WGSTRES", "CDR-L3": "QQYHRLPLS", "log10 Kd, replicates": "0.47 / 0.63 / 0.48", "mean log10 Kd (nM)": "0.52", "empty controls": "3/9 (5.08)"}
{"CDR-L1": "KSSQSVLYESRNKNNVA", "CDR-L2": "WASKRES", "CDR-L3": "QQYHRLYLS", "log10 Kd, replicates": "0.95 / 1.47 / 1.35", "mean log10 Kd (nM)": "1.26", "empty controls": "1/9 (5.20)"}
{"CDR-L1": "KQSQSVLYESHNTNSVA", "CDR-L2": "WASTRES", "CDR-L3": "QQYHRLPLS", "log10 Kd, replicates": "1.01 / 1.21 / 1.17", "mean log10 Kd (nM)": "1.13", "empty controls": "1/9 (3.02)"}
{"CDR-L1": "KSSQSVLYYSRNKNSVA", "CDR-L2": "WASTRES", "CDR-L3": "PQYHRLPLS", "log10 Kd, replicates": "nd / nd / 3.71", "mean log10 Kd (nM)": "3.71", "empty controls": "1/9 (3.52)"}
{"CDR-L1": "KSSQSVSYESRNKNSVA", "CDR-L2": "WASTRES", "CDR-L3": "QQDHRLPLK", "log10 Kd, replicates": "0.33 / 0.69 / 0.82", "mean log10 Kd (nM)": "0.61", "empty controls": "4/9 (5.41)"}
{"CDR-L1": "KSSQYVRYESRNKNSVA", "CDR-L2": "WASVRES", "CDR-L3": "QQYHRLPLS", "log10 Kd, replicates": "1.41 / 1.17 / 1.20", "mean log10 Kd (nM)": "1.26", "empty controls": "1/9 (4.26)"}
{"CDR-L1": "KYSQSVLKESRNKNSVA", "CDR-L2": "WASTRET", "CDR-L3": "QQYHRLPLS", "log10 Kd, replicates": "0.73 / 0.79 / 0.92", "mean log10 Kd (nM)": "0.81", "empty controls": "1/9 (3.20)"}
{"CDR-L1": "KSMQSVLYESRNKNSVA", "CDR-L2": "AASTREF", "CDR-L3": "QQYHRLPLS", "log10 Kd, replicates": "-0.16 / 0.19 / -0.03", "mean log10 Kd (nM)": "0.00", "empty controls": "8/9 (4.33)"}
{"CDR-L1": "KTSQSRLYESRNKNSVA", "CDR-L2": "WASTRES", "CDR-L3": "DQYHRLPLS", "log10 Kd, replicates": "nd / nd / nd", "mean log10 Kd (nM)": "nd", "empty controls": "1/9 (3.71)"}
{"CDR-L1": "KSSQSVLYESRNKMSWA", "CDR-L2": "WRSTRES", "CDR-L3": "QQYHRLPLS", "log10 Kd, replicates": "nd / 3.29 / nd", "mean log10 Kd (nM)": "3.29", "empty controls": "4/9 (3.79)"}
{"CDR-L1": "KSSQKVLYESRNKNSVA", "CDR-L2": "WASTRES", "CDR-L3": "QPYHRLPCS", "log10 Kd, replicates": "nd / 4.30 / nd", "mean log10 Kd (nM)": "4.30", "empty controls": "3/9 (4.93)"}
{"CDR-L1": "FSSQSVLYESRNKNSYA", "CDR-L2": "WASTRES", "CDR-L3": "QQYHRYPLS", "log10 Kd, replicates": "nd / nd / nd", "mean log10 Kd (nM)": "nd", "empty controls": "1/9 (3.88)"}
{"CDR-L1": "ISSQQVVYESRNKNSVA", "CDR-L2": "WASTRES", "CDR-L3": "QQYHRLPLS", "log10 Kd, replicates": "2.90 / 1.95 / 3.05", "mean log10 Kd (nM)": "2.63", "empty controls": "0/9"}
{"CDR-L1": "KSSQSVNYESRNKYSVA", "CDR-L2": "WASTRES", "CDR-L3": "QQYHRLPLS", "log10 Kd, replicates": "1.36 / 1.52 / 1.89", "mean log10 Kd (nM)": "1.59", "empty controls": "0/9"}

Picked from the list: the 2 lowest averages where every replicate gave a value.

CDR-L1	CDR-L2	CDR-L3	log10 Kd, replicates	mean log10 Kd (nM)	empty controls
KSMQSVLYESRNKNSVA	AASTREF	QQYHRLPLS	-0.16 / 0.19 / -0.03	0.00	8/9 (4.33)
KSSQSYLYESRNSNSVA	WASTREA	QQYHRLPLS	0.42 / 0.52 / 0.62	0.52	1/9 (4.55)

For reference, the parent read 0.65 as the reference entry and 1.68 as a member of this library.